Source: US20260200947A1, “FUSED CYCLIC COMPOUNDS AND USE THEREOF” (Jacobio Pharmaceuticals Co., Ltd., priority 2022, published 2026)

Columns and labels:
[1] = test system: AsPC-1 cells (K-Ras G12D)

Row | SMILES | IC50 [1] | IC50 (SW620 cells (K-Ras G12V))
1 | C#Cc1c(F)ccc2cc(N)cc(-c3nc4c5c(nc(OC[C@@]67CCCN6C[C@H](F)C7)nc5c3F)N3C(COCC[C@@H]3C)C4=C)c12 (stereo partly drawn) [Compound 128] | 10.8 nM | –
2 | CCc1c(O)c(=O)ccn1CCO (single isomer, unassigned) [Compound 102] | 274 nM | 27.1 nM
